Measured values from US20220008563A1, “RADIOLABELLED AND NONRADIOLABELLED PEGYLATED COMPOUNDS AND USES THEREOF” (The Regents of the University of California, priority 2020, published 2022).

The chains behind the UniProt entries cited, without tags or fusion partners.
UniProt P21397, whole entry: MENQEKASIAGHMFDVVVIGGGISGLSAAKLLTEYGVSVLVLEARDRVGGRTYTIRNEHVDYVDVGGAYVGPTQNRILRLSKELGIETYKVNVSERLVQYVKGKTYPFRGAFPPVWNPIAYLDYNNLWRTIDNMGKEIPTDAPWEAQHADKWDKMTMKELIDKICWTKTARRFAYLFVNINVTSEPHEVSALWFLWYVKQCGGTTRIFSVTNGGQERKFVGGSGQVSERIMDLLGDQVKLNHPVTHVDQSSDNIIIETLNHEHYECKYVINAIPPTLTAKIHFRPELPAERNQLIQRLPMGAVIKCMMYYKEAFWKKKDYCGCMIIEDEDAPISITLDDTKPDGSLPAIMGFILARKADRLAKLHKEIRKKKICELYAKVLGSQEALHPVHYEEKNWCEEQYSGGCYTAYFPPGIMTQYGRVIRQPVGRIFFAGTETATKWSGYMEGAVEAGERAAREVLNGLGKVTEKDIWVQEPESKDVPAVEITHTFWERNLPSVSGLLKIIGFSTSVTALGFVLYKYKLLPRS

Biological target: T1, MAO-A (Homo sapiens, UniProt P21397)
T1 construct: tissue Banner Sun Health Research Institute; host or cells: postmortem human anterior cingulate / corpus callosum sections (CN, AD, PD subjects)
Assay: Effect of drugs on the binding of [^18F]FAZIN3 in postmortem human brain sections
Settings: drug 1 μM
Protocol: MK-6240 (10 μM) was used since it is known to bind to Tau. […] The slides containing the sections (10 μm thick) were preincubated in PBS buffer for 15 minutes in eight different slide chambers (one total binding and seven with the different drugs). The preincubation PBS buffer was discarded and appropriate amount of each drug (dissolved in ethanol) was added to the chambers with the slides. […] The chambers were incubated at 25° C. for 1.25 h. The slides were then washed with cold PBS buffer twice, and cold water, respectively. The slides with the brain sections were air dried, exposed overnight on a phosphor film, and then placed on the Phosphor Autoradiographic Imaging System/Cyclone Storage Phosphor System (Packard Instruments Co).

Row | Structure (SMILES) | displacement (inhibition) of [^18F]FAZIN3 binding | displacement (inhibition) of [^18F]FAZIN3 binding (listed as deprenyl)
1 | C#CCN(C)CCCOc1ccc(Cl)cc1Cl [Clorgyline] | more than 80% | 
2 | C#CCN(C)C(C)Cc1ccccc1 (stereo not drawn) [Deprenyl] | little effect | did not have much effect
